{"sequences": {"note": "Chains of the proteins cited; added tags and fusions are not shown. Lines headed by an entry give the natural chain unless they say otherwise; changes in a name come on top.", "UniProt Q01727": "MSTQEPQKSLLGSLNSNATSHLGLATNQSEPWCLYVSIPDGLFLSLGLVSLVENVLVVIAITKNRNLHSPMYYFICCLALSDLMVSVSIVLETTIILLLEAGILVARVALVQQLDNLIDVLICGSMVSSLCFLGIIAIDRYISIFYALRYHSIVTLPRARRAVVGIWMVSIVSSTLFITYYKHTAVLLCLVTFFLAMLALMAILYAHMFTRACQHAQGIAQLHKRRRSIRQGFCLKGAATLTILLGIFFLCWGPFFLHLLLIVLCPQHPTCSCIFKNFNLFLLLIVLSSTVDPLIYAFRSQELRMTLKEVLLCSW", "UniProt P56450, whole entry, looked up": "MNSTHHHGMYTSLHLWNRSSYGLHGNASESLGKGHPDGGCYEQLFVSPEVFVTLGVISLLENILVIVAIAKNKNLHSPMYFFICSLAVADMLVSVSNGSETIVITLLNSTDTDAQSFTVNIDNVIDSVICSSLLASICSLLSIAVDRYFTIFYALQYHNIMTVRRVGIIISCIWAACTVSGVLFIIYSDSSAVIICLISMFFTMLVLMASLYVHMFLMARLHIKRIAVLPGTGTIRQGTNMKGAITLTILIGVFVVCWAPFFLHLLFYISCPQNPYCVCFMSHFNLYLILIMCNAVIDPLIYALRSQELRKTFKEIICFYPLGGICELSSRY"}, "source": "patent US20180360972A1", "about": "“THERAPEUTIC COMPOUNDS” (REGENTS OF THE UNIVERSITY OF MINNESOTA, priority 2017, published 2018)", "key": {"mMC1R [1]": {"molecular_target": "T1, mMC1R (Mus musculus, UniProt Q01727)", "test": "mMC1R | Agonist EC50 (nM)"}, "mMC1R [2]": {"molecular_target": "T1, mMC1R", "test": "mMC1R | IC50 (nM) | Mean ± SEM"}, "mMC4R": {"molecular_target": "mMC4R (Mus musculus, UniProt P56450)", "test": "mMC4R | IC50 (nM) | Mean±SEM", "settings": "read-out: mMC4R | IC50 (nM) | Mean±SEM"}}}
{"smiles": "CC(=O)N[C@@H](Cc1c[nH]cn1)C(=O)N[C@H](Cc1ccccc1)C(=O)N[C@@H](CCCNC(=N)N)C(=O)N[C@@H](Cc1c[nH]c2ccccc12)C(N)=O", "note": "[CJL-1-14, Ac-His-DPhe-Arg-Trp-NH2]", "values": [{"measurement": "EC50", "setting": "mMC1R [1]", "result": "14.1 ± 2.6", "unit": "nM"}, {"measurement": "IC50", "setting": "mMC1R [2]", "result": "388 ± 52", "unit": "nM"}, {"measurement": "IC50", "setting": "mMC4R", "result": "214 ± 55", "unit": "nM"}]}
